Here are results for one molecule from patent publication US8927533B2, “Thio derivatives bearing lactams as potent HDAC inhibitors and their uses as medicaments” (SIGMA-TAU Industrie Farmaceutiche Riunite S.p.A., priority 2011, dated 2015).

Structures are written as SMILES.

The test concerns the target T1, HDAC10 (Homo sapiens, UniProt Q969S8).
T1 sequence (Q969S8 1-669): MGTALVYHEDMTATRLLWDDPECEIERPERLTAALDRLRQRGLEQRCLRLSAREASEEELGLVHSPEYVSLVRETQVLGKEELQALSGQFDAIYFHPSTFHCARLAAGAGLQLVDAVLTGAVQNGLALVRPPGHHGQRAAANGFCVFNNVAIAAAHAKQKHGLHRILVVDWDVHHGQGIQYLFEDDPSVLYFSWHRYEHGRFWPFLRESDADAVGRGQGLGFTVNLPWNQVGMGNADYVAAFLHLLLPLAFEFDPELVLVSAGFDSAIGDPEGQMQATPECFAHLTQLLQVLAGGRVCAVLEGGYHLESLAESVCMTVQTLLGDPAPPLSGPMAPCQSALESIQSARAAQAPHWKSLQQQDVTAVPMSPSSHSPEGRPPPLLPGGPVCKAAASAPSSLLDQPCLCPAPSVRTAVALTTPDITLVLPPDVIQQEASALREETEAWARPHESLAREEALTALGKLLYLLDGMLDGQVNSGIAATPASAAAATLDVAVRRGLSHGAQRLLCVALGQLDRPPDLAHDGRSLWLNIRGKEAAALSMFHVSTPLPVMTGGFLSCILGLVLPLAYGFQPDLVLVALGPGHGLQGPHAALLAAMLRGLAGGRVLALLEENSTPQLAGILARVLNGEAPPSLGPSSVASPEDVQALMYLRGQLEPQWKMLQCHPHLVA
As to the kind of experiment: HDAC enzymatic assay, HDAC10. The class given is biochemical. The procedure:
Each compound was dissolved in DMSO, and progressively diluted solutions were used for testing. […] Upon its deacetylation, the fluorophore was released given rise to fluorescence emission which was detected by a fluorimeter, and the IC50 values of the compounds were determined by analyzing dose-response inhibition curves.

`O=C(CCCCCCC(=O)Nc1ccccc1)NO` [SAHA, suberoylanilide hydroxamic acid, reference compound]: the IC50 (in general, the concentration that inhibits the measured activity by half) was 100 to 500 nM.
